Measured values reported in patent publication US10987426B2 (ADOCIA, priority 2017, dated 2021).

Experiments:
[1] = Thioflavin T (ThT) fluorescence fibrillation test, latent period; type: physicochemical; conditions: glucagon alone at acidic pH
[2] = Physical stability of compositions in cartridges under static conditions at 37° C., visual inspection; conditions: 1 mg/mL glucagon

Structure (SMILES): CSCC[C@H](NC(=O)[C@H](CC(C)C)NC(=O)[C@H](Cc1c[nH]c2ccccc12)NC(=O)[C@H](CCC(N)=O)NC(=O)[C@@H](NC(=O)[C@H](Cc1ccccc1)NC(=O)[C@H](CC(=O)O)NC(=O)[C@H](CCC(N)=O)NC(=O)[C@H](C)NC(=O)[C@H](CCCN=C(N)N)NC(=O)[C@H](CCCN=C(N)N)NC(=O)[C@H](CO)NC(=O)[C@H](CC(=O)O)NC(=O)[C@H](CC(C)C)NC(=O)[C@H](Cc1ccc(O)cc1)NC(=O)[C@H](CCCCN)NC(=O)[C@H](CO)NC(=O)[C@H](Cc1ccc(O)cc1)NC(=O)[C@H](CC(=O)O)NC(=O)[C@H](CO)NC(=O)[C@@H](NC(=O)[C@H](Cc1ccccc1)NC(=O)[C@@H](NC(=O)CNC(=O)[C@H](CCC(N)=O)NC(=O)[C@H](CO)NC(=O)[C@@H](N)Cc1c[nH]cn1)[C@@H](C)O)[C@@H](C)O)C(C)C)C(=O)N[C@@H](CC(N)=O)C(=O)N[C@H](C(=O)O)[C@@H](C)O [glucagon, human glucagon]
- Stability under ThT measurement conditions [1]: only stable for a few minutes
- Physical stability of glucagon solution at acidic pH [2]: 2 days
